This note sets out measurements from PMC10892093 (Pharmaceutics, 2024).

The experiment concerns the target T1, UGT2B7 (Homo sapiens, UniProt P16662).
T1 construct: expressed in transfected cells; microsomal fraction
T1 sequence (P16662 24-529): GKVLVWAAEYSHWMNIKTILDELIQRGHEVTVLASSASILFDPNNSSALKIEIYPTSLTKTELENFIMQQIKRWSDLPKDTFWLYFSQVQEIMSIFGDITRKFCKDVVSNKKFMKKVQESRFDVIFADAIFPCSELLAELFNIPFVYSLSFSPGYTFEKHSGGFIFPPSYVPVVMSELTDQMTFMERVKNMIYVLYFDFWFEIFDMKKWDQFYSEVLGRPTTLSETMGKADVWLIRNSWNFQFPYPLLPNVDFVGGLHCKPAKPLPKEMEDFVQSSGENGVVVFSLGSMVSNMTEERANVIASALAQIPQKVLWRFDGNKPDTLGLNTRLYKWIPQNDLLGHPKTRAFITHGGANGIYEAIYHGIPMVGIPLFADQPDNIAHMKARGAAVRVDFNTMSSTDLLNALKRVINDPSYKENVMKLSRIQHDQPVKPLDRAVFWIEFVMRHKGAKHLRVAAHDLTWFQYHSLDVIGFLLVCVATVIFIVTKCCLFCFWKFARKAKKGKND
The experiment can be described thus: Inhibition of R- and S-oxazepam glucuronidation in rUGT2B7 microsomes (UGT-overexpressing HEK293). It is filed as biochemical. As to the method:
Human embryonic kidney cells (HEK293) stably overexpressing the single UGTs 1A9, 2B7, and 2B15 have been previously established and described. Cells were grown in DMEM supplemented with 350 μg/mL of geneticin and 10% FBS and harvested in PBS. Microsomal fractions of UGT-overexpressing cell lines were prepared by differential centrifugation using previously described protocols. Briefly, cell homogenates were prepared by resuspending pelleted cells in PBS, followed by five rounds of freeze–thaw cycles prior to homogenization. Recombinant microsomes (rUGTs) were prepared by centrifuging the cell homogenate at a low speed (9000× g for 30 min) followed by ultracentrifugation (34,000× g for 60 min), with the total protein subsequently determined using a BCA assay. Recombinant microsomes (UGT1A9 and 2B7) and homogenates (UGT2B15) were used for inhibition studies.
A Waters Corp BEH C18 Acquity UPLC column (1.7 µM, 2.1 × 100 mm) was used at a constant temperature of 40 °C for chromatographic separation. An elution gradient was used for 6.5 min with mobile phases A (5 mM ammonium formate) and B (100% methanol) under the following conditions: 90% A for 0.5 min, followed by a linear gradient for 3 min to 60% A, 1 min at 5% A, and re-equilibration for 1 min at 90% A.
The reaction was initiated by the addition of 4 mM UDPGA as the cofactor and incubated for 2 h at 37 °C. The reaction was terminated by adding 30 µL of an ice-cold stop solution (acetonitrile/methanol; 1:1). The reaction mixtures were centrifuged at 17,000× g for 30 min at 4 °C, and the supernatant was transferred to UPLC sample glass vial for analysis using UPLC–MS/MS (described above). […] As a positive control for inhibition assays, ketoconazole (10 μM and 100 µM) was used as a potential inhibitor of the UGTs 1A9, 2B7, and 2B15. Reactions containing only the cannabinoid vehicle (3% methanol) and without any inhibitor (cannabinoids) were used as a baseline reaction for 100% enzyme activity, while a reaction without UDPGA was used as a negative control. All experiments were performed in three independent experiments.
Determination of IC50 and Ki Values. […] The nonspecific binding constants (fu,inc) for cannabinoids in HEK293 microsomes, HLM, and HKM were previously determined and used to calculate the inhibition by unbound (‘free’) cannabinoid in each reaction. A nonlinear regression analysis and the following equation were used to calculate the IC50 values:(1) y = Bottom +Top − Bottom / 1 + 10^x − LogIC50A where ‘Bottom’ is the maximum observed inhibition (lowest percent activity) and ‘Top’ is the minimum observed inhibition (highest percent activity) for a given cannabinoid.

The structures appear in SMILES notation. Like-named read-outs stand apart in the source and are kept apart here.

In general, IC50 refers to the midpoint of a concentration-inhibition curve.

Consider `C=C(C)[C@@H]1CCC(C)=C[C@H]1c1c(O)cc(CCCCC)cc1O` [CBD, cannabidiol], for which the IC50 (IC50 corrected with fu,inc, read-out: IC50,u, R-Oxazepam Glucuronide) was 100 ± 45 nM; the IC50 (IC50 corrected with fu,inc, read-out: IC50,u, S-Oxazepam Glucuronide) came out at 110 ± 110 nM; the IC50 (read-out: IC50, R-Oxazepam Glucuronide) was determined as 2600 ± 1200 nM; the IC50 (read-out: IC50, S-Oxazepam Glucuronide) stood at 2900 ± 2900 nM.
